Test results reported in patent publication US11180499B2, “Phosphodiesterase inhibitors” (BOARD OF REGENTS OF THE UNIVERSITY OF NEBRASKA, priority 2018, dated 2021).

Protein sequences, listed by entry. Tags and fused reporters are not part of them. Lines headed by an entry give the natural chain unless they say otherwise; changes in a name come on top.
UniProt Q08499: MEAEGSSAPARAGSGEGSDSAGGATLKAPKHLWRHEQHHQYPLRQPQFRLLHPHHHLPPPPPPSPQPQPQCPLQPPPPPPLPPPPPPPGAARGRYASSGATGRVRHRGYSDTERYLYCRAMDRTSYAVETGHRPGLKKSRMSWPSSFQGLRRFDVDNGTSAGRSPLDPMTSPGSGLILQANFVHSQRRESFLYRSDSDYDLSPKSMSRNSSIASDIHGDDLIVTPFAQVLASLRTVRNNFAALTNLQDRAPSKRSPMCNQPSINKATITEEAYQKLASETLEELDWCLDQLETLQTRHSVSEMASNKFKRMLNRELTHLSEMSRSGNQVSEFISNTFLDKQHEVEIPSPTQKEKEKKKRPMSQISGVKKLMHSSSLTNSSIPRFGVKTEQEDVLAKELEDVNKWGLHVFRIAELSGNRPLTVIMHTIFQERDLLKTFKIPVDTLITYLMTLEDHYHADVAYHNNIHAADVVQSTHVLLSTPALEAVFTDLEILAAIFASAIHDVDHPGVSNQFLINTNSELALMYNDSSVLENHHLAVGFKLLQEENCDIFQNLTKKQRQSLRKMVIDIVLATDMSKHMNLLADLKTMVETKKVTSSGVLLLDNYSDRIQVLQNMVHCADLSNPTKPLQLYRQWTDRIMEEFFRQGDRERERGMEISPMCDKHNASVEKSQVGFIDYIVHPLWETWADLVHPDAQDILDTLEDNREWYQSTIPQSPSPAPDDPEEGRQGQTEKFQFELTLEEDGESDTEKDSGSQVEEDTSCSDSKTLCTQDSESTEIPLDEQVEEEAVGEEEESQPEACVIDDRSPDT

target: T1, PDE4D (Homo sapiens, UniProt Q08499); assay: In vitro PDE4 inhibition study, PDE4D (BPS Bioscience); format: binding
T1 construct: purchased BPS Bioscience, San Diego
Description: The IC50 values of Compound 8 on PDE4 isoforms were determined by BPS Bioscience, San Diego. In brief, coat proteins (PDE4 isoforms) were added into the plate in a volume of 50 μl (2-5 ng/μl) at 4° C. overnight. The next day, Compound 8 was added to the coated plate with varying concentrations followed by addition of the corresponding biotinylated binding partner. The reaction was incubated for 2 hours at room temperature. Binding assays were performed in duplicate at each concentration and the plates were read by using Synergy 2 BioTek plate reader. The luminescence data were analyzed using the Graphpad Prism. […] Data for a reference compounds or antibodies are included as a control for inhibition. “ND” indicates the compound was not tested.

IC50 [nM] | SMILES
~1900 | O=C(c1cc2cccnc2n1-c1ccnc(F)c1)N1CC(F)C1 [Compound 41, (3-fluoroazetidin-1-yl)(1-(2-fluoropyridin-4-yl)-1H-pyrrolo[2,3-b]pyridin-2-yl)methanone]
~6300 | COc1c(F)cc(-n2c(C(=O)N3CC(F)C3)cc3cccnc32)cc1F [Compound 42, (1-(3,5-difluoro-4-methoxyphenyl)-1H-pyrrolo[2,3-b]pyridin-2-yl)(3-fluoroazetidin-1-yl) methanone]
1600 | COc1ncc(-n2c(C(=O)N3CC(F)C3)cc3cccnc32)cc1Cl [Compound 39, (1-(5-chloro-6-methoxypyridin-3-yl)-1H-pyrrolo[2,3-b]pyridin-2-yl)(3-fluoroazetidin-1-yl) methanone]
